# From article PMC11882969 (Nature Communications, 2025)
# The chains behind the UniProt entries cited, without tags or fusion partners.
# UniProt Q92847, whole entry: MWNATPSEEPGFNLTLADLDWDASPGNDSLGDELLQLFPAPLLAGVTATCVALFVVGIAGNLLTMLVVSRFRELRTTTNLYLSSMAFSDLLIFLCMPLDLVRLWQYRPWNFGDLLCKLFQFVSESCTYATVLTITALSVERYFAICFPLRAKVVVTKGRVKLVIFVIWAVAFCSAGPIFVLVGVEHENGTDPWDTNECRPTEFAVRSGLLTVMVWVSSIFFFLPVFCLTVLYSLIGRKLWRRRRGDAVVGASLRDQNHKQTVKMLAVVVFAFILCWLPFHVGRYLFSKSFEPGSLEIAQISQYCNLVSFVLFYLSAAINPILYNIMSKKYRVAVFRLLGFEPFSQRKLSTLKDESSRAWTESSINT
# Biological target: human Ghrelin receptor (GSHR) (Homo sapiens, UniProt Q92847)
# Assay: Gq bioSens-All control assay
# Conditions: raw signal
substance,measurement,setting,value
Ghrelin,Ghrelin control response,Log[Ghrelin] (M) -4.22186,1761.95
same,Ghrelin control response,Log[Ghrelin] (M) -4.88264,1706.31
same,Ghrelin control response,Log[Ghrelin] (M) -5.54073,1913.18
same,Ghrelin control response,Log[Ghrelin] (M) -6.19385,1787.26
same,Ghrelin control response,Log[Ghrelin] (M) -6.86013,1793.03
same,Ghrelin control response,Log[Ghrelin] (M) -7.52288,1659.54
same,Ghrelin control response,Log[Ghrelin] (M) -8.79589,1503.17
same,Ghrelin control response,Log[Ghrelin] (M) -9.60206,1023.31
same,Ghrelin control response,Log[Ghrelin] (M) -10.3979,815.27
same,Ghrelin control response,Log[Ghrelin] (M) -11.1871,750.82
